Source: patent US9617242B2, “Histone demethylase inhibitors” (priority 2012, dated 2017)

Sequences of proteins named here, by UniProt entry; tags and fusion partners are left off. Residues count along the entry.
UniProt Q9UGL1, 2-751: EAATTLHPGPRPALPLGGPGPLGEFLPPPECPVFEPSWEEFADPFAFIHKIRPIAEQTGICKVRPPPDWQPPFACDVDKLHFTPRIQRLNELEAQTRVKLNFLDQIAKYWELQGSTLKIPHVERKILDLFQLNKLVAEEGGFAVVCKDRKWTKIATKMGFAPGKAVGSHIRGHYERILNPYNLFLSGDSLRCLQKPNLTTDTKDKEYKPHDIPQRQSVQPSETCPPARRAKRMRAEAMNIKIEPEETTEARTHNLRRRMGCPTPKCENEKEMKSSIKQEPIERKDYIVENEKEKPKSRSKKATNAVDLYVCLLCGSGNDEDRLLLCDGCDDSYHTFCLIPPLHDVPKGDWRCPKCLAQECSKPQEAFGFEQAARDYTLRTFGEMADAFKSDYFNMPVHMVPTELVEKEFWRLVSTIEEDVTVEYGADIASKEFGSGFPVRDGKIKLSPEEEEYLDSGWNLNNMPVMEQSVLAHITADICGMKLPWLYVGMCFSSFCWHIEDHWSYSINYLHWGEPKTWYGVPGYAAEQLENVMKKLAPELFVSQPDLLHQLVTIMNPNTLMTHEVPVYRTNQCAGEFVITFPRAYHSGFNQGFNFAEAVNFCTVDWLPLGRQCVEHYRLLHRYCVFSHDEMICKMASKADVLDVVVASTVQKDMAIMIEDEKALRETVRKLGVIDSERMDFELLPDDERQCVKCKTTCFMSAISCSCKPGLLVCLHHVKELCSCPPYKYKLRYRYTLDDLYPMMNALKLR
UniProt P29375, 1-1090: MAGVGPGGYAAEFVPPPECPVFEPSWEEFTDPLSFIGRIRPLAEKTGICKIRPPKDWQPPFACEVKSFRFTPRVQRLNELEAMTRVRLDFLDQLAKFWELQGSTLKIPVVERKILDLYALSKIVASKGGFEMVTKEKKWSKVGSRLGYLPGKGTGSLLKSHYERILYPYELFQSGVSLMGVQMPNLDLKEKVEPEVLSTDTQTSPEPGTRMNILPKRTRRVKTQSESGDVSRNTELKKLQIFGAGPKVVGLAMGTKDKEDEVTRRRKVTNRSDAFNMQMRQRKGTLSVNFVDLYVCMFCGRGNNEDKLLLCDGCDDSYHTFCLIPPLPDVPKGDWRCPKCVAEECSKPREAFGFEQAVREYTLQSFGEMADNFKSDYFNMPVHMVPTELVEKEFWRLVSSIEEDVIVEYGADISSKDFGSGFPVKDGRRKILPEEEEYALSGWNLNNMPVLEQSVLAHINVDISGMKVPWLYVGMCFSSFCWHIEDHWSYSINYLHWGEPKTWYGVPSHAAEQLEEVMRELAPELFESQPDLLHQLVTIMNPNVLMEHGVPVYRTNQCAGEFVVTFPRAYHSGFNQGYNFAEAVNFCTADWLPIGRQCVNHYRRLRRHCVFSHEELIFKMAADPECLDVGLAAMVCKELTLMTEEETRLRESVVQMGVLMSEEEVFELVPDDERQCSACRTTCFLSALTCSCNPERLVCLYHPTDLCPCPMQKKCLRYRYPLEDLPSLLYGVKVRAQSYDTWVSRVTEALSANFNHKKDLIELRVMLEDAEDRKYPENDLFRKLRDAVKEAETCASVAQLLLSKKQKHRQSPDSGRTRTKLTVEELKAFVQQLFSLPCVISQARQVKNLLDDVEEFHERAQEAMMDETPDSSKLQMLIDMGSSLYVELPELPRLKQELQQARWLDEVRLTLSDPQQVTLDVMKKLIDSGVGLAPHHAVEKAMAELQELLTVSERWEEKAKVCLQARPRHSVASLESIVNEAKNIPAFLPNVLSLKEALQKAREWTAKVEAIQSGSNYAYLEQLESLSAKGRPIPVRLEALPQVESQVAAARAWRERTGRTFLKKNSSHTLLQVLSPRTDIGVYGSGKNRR
UniProt Q9H3R0, 2-372: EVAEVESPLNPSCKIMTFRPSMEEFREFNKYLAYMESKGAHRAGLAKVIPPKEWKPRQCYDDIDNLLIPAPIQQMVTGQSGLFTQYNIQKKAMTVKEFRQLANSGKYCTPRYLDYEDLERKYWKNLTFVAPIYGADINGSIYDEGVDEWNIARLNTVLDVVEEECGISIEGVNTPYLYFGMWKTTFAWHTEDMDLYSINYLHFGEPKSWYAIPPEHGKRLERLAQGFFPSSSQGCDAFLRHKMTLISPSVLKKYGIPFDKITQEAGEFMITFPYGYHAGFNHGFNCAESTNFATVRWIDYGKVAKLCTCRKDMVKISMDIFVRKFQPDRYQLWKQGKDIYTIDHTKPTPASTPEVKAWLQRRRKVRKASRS

Experiments:
Format in all cases: biochemical
Jarid1B = Jarid1B (Homo sapiens (Human), UniProt Q9UGL1); experiment: Jarid1B in vitro enzyme inhibition assay (TR-FRET)
Jarid1A = Jarid1A (Homo sapiens (Human), UniProt P29375); experiment: Jarid1A in vitro enzyme inhibition assay (TR-FRET)
JMJD2C = JMJD2C (Homo sapiens (Human), UniProt Q9H3R0); experiment: JMJD2C in vitro enzyme inhibition assay (TR-FRET)

SMILES | IC50 (Jarid1B) [nM] | IC50 (Jarid1A) [nM] | IC50 (JMJD2C) [nM]
O=C(O)c1ccncc1Nc1nn([C@@H]2CCNC2)c2ccc(F)cc12 [Example 61, 3-({5-fluoro-1-[(3R)-pyrrolidin-3-yl]-1H-indazol-3-yl}amino)pyridine-4-carboxylic] | < 100 | < 100 | < 100
Cn1nc(Nc2cnccc2C(=O)O)c2ccc(F)cc21 [Example 6, 3-[(6-fluoro-1-methyl-1H-indazol-3-yl)amino]pyridine-4-carboxylic acid] | < 100 | < 100 | < 100
Cc1ccc2c(c1)c(Nc1cnccc1C(=O)O)nn2C [Example 12, 3-[(1,5-dimethyl-1H-indazol-3-yl)amino]pyridine-4-carboxylic acid] | < 100 | < 100 | < 100
O=C(O)c1ccncc1Nc1nn(C2CCOC2)c2c1CCCC2 (centres unmarked) [Example 65, 3-{[1-(tetrahydrofuran-3-yl)-4,5,6,7-tetrahydro-1H-indazol-3-yl]amino}pyridine-4-carboxylic acid] | < 100 | < 100 | –
O=C(O)c1ccncc1Nc1nn([C@H]2CCNC2)c2ccc(F)cc12 [Example 60, 3-({5-fluoro-1-[(3S)-pyrrolidin-3-yl]-1H-indazol-3-yl}amino)pyridine-4-carboxylic acid] | < 100 | < 100 | < 100
